Assay results from US20260384447A1, “INHIBITORS OF NLRP3” (published 2026).

By UniProt entry, the sequences of proteins in these tests, tags left out.
UniProt Q96P20, whole entry: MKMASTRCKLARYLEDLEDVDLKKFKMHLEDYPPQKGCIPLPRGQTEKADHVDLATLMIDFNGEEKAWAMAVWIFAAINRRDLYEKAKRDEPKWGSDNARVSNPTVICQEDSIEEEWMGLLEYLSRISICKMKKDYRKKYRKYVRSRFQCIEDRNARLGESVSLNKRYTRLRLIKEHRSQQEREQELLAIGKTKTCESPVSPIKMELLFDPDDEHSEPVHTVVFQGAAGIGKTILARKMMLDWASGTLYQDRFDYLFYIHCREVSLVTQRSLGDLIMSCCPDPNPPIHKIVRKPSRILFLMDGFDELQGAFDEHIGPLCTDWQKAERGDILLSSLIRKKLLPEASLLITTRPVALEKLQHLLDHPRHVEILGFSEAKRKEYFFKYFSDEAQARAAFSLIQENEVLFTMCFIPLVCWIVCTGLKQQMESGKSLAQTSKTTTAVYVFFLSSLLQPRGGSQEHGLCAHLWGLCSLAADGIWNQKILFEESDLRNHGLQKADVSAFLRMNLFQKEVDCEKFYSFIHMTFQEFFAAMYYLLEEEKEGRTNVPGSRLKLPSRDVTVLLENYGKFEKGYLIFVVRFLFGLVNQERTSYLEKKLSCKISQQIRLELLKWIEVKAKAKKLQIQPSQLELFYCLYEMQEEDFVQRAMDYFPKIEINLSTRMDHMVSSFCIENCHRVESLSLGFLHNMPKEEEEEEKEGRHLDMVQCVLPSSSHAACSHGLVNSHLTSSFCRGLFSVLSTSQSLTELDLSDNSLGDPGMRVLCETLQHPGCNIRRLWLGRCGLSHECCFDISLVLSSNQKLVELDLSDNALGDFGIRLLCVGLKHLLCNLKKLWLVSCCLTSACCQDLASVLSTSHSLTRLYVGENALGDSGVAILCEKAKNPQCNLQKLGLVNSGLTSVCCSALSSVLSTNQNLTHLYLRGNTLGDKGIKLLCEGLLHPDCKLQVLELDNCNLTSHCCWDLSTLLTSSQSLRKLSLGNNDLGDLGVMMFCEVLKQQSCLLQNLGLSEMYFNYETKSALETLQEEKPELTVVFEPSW

How the values were obtained:
[1] = target: T1, NLRP3 (Homo sapiens, UniProt Q96P20); test: THP-1 Cells Pyroptosis Assay; details: read-out: THP-1 pyroptosis Assay IC50, 1.0 μg/ml LPS, nigericin 5 μM, resazurin readout, 37 °C
[2] = target: T1, NLRP3; test: Human Whole Blood IL-1β Release Assay; details: read-out: Human whole blood IL-1β Assay IC50, 1 μg/ml LPS, nigericin 10 μM, IL-1β AlphaLisa, 37 °C

Cc1c(-c2ccc3c(c2O)CCO3)nnc2c1OCCN2[C@@H]1CCCC[C@H]1O
IC50 [1]: 42 nM | IC50 [2]: 69 nM

CCN1CCC[C@@H](N2CCOc3c2nnc(-c2ccc(C#N)cc2O)c3C)C1
IC50 [1]: 38 nM | IC50 [2]: 56 nM

Cc1cc(OC(F)(F)F)cc(O)c1-c1cc2c(nn1)N([C@@H]1CCCC[C@H]1O)CCO2
IC50 [1]: 110 nM

Cc1cc2c(c(O)c1-c1cc3c(nn1)N([C@@H]1CCOC[C@H]1O)CCO3)CCO2
IC50 [1]: 49 nM

Cc1cc2c(c(O)c1-c1cc3c(nn1)N([C@H]1CC[C@H](O)CC1)CCO3)CCO2
IC50 [1]: 273 nM

Cc1cc(C#N)cc(O)c1-c1cc2c(nn1)N([C@H]1C[C@@](C)(O)C1)CCO2
IC50 [1]: > 1000 nM | IC50 [2]: 546 nM

CCN1C[C@@H](O)C[C@@H](N2CCOc3cc(-c4c(C)cc(C#N)cc4O)nnc32)C1
IC50 [1]: 62 nM | IC50 [2]: 151 nM

Cc1cc2c(c(O)c1-c1cc3c(nn1)N([C@@H]1CCC[C@H](O)C1)CCO3)CCO2
IC50 [1]: 56 nM

Cc1cc(C)c(-c2cc3c(nn2)N([C@@H]2CCCC[C@H]2O)CCO3)c(O)c1
IC50 [1]: 46 nM | IC50 [2]: 140 nM

Cc1cc(C(F)(F)F)cc(O)c1-c1cc2c(nn1)N([C@@H]1CCCC[C@H]1O)CCO2
IC50 [1]: 30 nM | IC50 [2]: 69 nM

Cc1cc(C#N)cc(O)c1-c1cc2c(nn1)N([C@@H]1CCCC[C@H]1O)CCO2
IC50 [1]: 81 nM

CCN1CC[C@@H](N2CCOc3cc(-c4c(C)cc(C#N)cc4O)nnc32)C1
IC50 [1]: 120 nM
